The values that follow come from ChEMBL document CHEMBL3272311, “Syntheses and pharmacological activity of substituted imidazolidinethiones and thiomidazolines” (J Med Chem, 1977).

Data set [1] concerns Mus musculus. Description: Safety index, ratio of LD50 for toxicity in Swiss-Webster mouse to ED50 for CNS depressant activity in ip dosed Swiss-Webster by rotarod assay. Format: functional. (In general: In the rotarod test animals must keep their balance on a rotating rod.)
Data set [2] is described as follows: Toxicity in ip dosed Swiss-Webster mouse after 24 hrs. Format: organism-based. Particulars: in vivo.

A word on the LD50: it is the dose at which mortality reaches 50%. Low values mean greater toxicity, high ones lower toxicity.

As for `O=C1NC(=O)C(c2ccccc2)(c2ccccc2)N1` [PHENYTOIN], the “Ratio LD50/ED50” value in data set [1] came out at 18.7. This molecule also showed an LD50 at 24 h in data set [2] of 200 mg/kg.
